Patent US5091176A, “Polymer-modified peptide drugs having enhanced biological and pharmacological activities” (W. R. Grace & Co.-Conn., priority 1990, dated 1992)

System: alkaline phosphatase
Conditions: alkaline phosphatase 50 ng/well; rabbit antisera, day 35 test bleed; FIG. 1

Question: With alkaline phosphatase as the substance, how does the “binding of the antiserum raised against the antigen to immobilized alkaline phosphatase (immunogenicity)” value read?
Answer: Its value is “strong binding”.
